## Cyclic peptide permeability, from CycPeptMPDB

Source: CycPeptMPDB (Li et al. 2023), which took these values from Townsend et al. 2020, doi:10.26434/chemrxiv.13335941.v1.

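Lipid, pH, incubation time, direction and concentration are not recorded in the data file. Other peptides of the study may be missing here. Entries at the database's floor value (log10 P of -10) are not listed.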

PAMPA measures passive passage through an artificial lipid membrane.
Permeability is given as log10 of P in cm/s; higher (less negative) is more permeable.

PAMPA (log10 cm/s) | SMILES
-5.56 | CC(C)C[C@@H]1C(=O)N2CCC[C@H]2C(=O)N(C)[C@@H](CC(C)C)C(=O)N[C@@H](Cc2ccccc2)C(=O)N2CCC[C@H]2C(=O)N[C@@H](Cc2ccccc2)CC(=O)N[C@H](CC(C)C)C(=O)N1C
-5.48 | CC(C)C[C@@H]1C(=O)N(Cc2ccccc2)CC(=O)N2CCC[C@@H]2C(=O)N(C)[C@@H](CC(C)C)C(=O)N[C@@H](Cc2ccccc2)C(=O)N2CCC[C@@H]2C(=O)N(C)[C@@H](C)C(=O)N1C
-5.55 | CC(C)C[C@@H]1C(=O)N[C@@H](Cc2ccccc2)C(=O)N2CCC[C@@H]2C(=O)N[C@H](C)C(=O)N(C)[C@@H](CC(C)C)C(=O)N[C@@H](Cc2ccccc2)CC(=O)N2CCC[C@H]2C(=O)N1C
-5.78 | CC(C)C[C@H]1NC(=O)[C@H]2CCCN2C(=O)CN(Cc2ccccc2)C(=O)[C@@H](CC(C)C)NC(=O)C[C@H](Cc2ccccc2)NC(=O)[C@H]2CCCN2C(=O)[C@H](Cc2ccccc2)NC1=O
-6.22 | CC(C)C[C@@H]1NC(=O)[C@H]2CCCN2C(=O)CN(Cc2ccccc2)C(=O)[C@H](CC(C)C)NC(=O)[C@H](C)NC(=O)[C@H]2CCCN2C(=O)[C@H](Cc2ccccc2)NC1=O
-5.18 | CCCN1CC(=O)N(Cc2ccccc2)CC(=O)N[C@@H](CC(C)C)C(=O)N2CCC[C@H]2C(=O)N(C)[C@@H](CC(C)C)C(=O)N[C@@H](Cc2ccccc2)C(=O)N2CCC[C@@H]2C1=O
-6.04 | CC(C)C[C@@H]1NC(=O)C[C@H](Cc2ccccc2)NC(=O)[C@H]2CCCN2C(=O)[C@H](Cc2ccccc2)NC(=O)CN(Cc2ccccc2)C(=O)[C@H]2CCCN2C(=O)[C@@H](CC(C)C)N(C)C1=O
-6.12 | CCCN1CC(=O)N(Cc2ccccc2)CC(=O)N(C)[C@@H](CC(C)C)C(=O)N2CCC[C@@H]2C(=O)N[C@H](CC(C)C)C(=O)N[C@@H](Cc2ccccc2)C(=O)N2CCC[C@H]2C1=O
-5.41 | CC(C)C[C@@H]1C(=O)N[C@@H](Cc2ccccc2)CC(=O)N2CCC[C@H]2C(=O)N(C)[C@@H](CC(C)C)C(=O)N[C@@H](Cc2ccccc2)C(=O)N2CCC[C@H]2C(=O)N[C@H](C)C(=O)N1C
-5.26 | CC(C)C[C@@H]1NC(=O)[C@@H](C)N(C)C(=O)[C@H]2CCCN2C(=O)[C@H](Cc2ccccc2)NC(=O)[C@H](CC(C)C)N(C)C(=O)[C@@H]2CCCN2C(=O)[C@@H](CC(C)C)N(C)C1=O
-5.06 | CC(C)C[C@@H]1NC(=O)[C@@H](C)NC(=O)[C@H](Cc2ccccc2)NC(=O)[C@@H](CC(C)C)NC(=O)[C@H]2CCCN2C(=O)C[C@H](Cc2ccccc2)NC1=O
-5.29 | CCCN1CC(=O)N(C)[C@H](CC(C)C)C(=O)N[C@@H](Cc2ccccc2)CC(=O)N2CCC[C@@H]2C(=O)N(C)[C@H](CC(C)C)C(=O)N[C@@H](Cc2ccccc2)C(=O)N2CCC[C@@H]2C1=O
-6.25 | CC(C)C[C@@H]1NC(=O)[C@@H](C)N(C)C(=O)[C@H]2CCCN2C(=O)[C@H](Cc2ccccc2)NC(=O)[C@H](CC(C)C)N(C)C(=O)[C@H]2CCCN2C(=O)CN(Cc2ccccc2)C1=O
-5.07 | CC(C)C[C@@H]1C(=O)N2CCC[C@@H]2C(=O)N(C)[C@@H](CC(C)C)C(=O)N[C@@H](Cc2ccccc2)C(=O)N2CCC[C@@H]2C(=O)N(C)[C@@H](C)C(=O)N[C@H](CC(C)C)C(=O)N1C
-5.55 | CC(C)C[C@@H]1C(=O)N[C@H](CC(C)C)C(=O)N2CCC[C@H]2C(=O)N[C@H](CC(C)C)C(=O)N[C@@H](Cc2ccccc2)C(=O)N2CCC[C@H]2C(=O)N(C)[C@@H](C)C(=O)N1C
-6.05 | CC(C)C[C@@H]1NC(=O)[C@@H](CC(C)C)NC(=O)[C@@H](C)N(C)C(=O)[C@H]2CCCN2C(=O)[C@H](Cc2ccccc2)NC(=O)CN(Cc2ccccc2)C(=O)[C@H]2CCCN2C1=O
-5.63 | CC(C)C[C@@H]1NC(=O)[C@@H](CC(C)C)N(C)C(=O)[C@H](C)NC(=O)[C@@H]2CCCN2C(=O)[C@H](Cc2ccccc2)NC(=O)[C@@H](CC(C)C)N(C)C(=O)[C@@H]2CCCN2C1=O

Excerpt, the opening 3 entries:

{"smiles": "CC(C)C[C@@H]1C(=O)N2CCC[C@H]2C(=O)N(C)[C@@H](CC(C)C)C(=O)N[C@@H](Cc2ccccc2)C(=O)N2CCC[C@H]2C(=O)N[C@@H](Cc2ccccc2)CC(=O)N[C@H](CC(C)C)C(=O)N1C", "PAMPA (log10 cm/s)": "-5.56"}
{"smiles": "CC(C)C[C@@H]1C(=O)N(Cc2ccccc2)CC(=O)N2CCC[C@@H]2C(=O)N(C)[C@@H](CC(C)C)C(=O)N[C@@H](Cc2ccccc2)C(=O)N2CCC[C@@H]2C(=O)N(C)[C@@H](C)C(=O)N1C", "PAMPA (log10 cm/s)": "-5.48"}
{"smiles": "CC(C)C[C@@H]1C(=O)N[C@@H](Cc2ccccc2)C(=O)N2CCC[C@@H]2C(=O)N[C@H](C)C(=O)N(C)[C@@H](CC(C)C)C(=O)N[C@@H](Cc2ccccc2)CC(=O)N2CCC[C@H]2C(=O)N1C", "PAMPA (log10 cm/s)": "-5.55"}